The source of these data is ChEMBL document CHEMBL4020802, “Fused bi-heteroaryl substituted hydantoin compounds as TACE inhibitors” (Bioorg Med Chem Lett, 2017).

This assay concerns Blood. The assay is described as follows: Antiinflammatory activity in human whole blood assessed as inhibition of LPS-induced TNF-alpha release preincubated for 1 hr followed by LPS addition after 3.5 hrs by ELISA method. Type of assay: functional.

Turning to `COc1ccc2c(c1)C(=O)N(C[C@@]1(c3cc4nc(N(c5cn[nH]c5)C5CCN(C)CC5)ccc4o3)NC(=O)NC1=O)C2`, the IC50 amounted to 0.187 µM.

For orientation: IC50 means the midpoint of a concentration-inhibition curve.
